Experimental data taken from ChEMBL document CHEMBL4138209, “Inhibitory effects and structural insights for a novel series of coumarin-based compounds that selectively target human CA IX and CA XII carbonic anhydrases” (Eur J Med Chem, 2018).

By UniProt entry, the sequences of proteins in these tests, tags left out. Where a name states a change or a piece, a line headed by the entry shows the natural chain unless it says otherwise.
UniProt P00915: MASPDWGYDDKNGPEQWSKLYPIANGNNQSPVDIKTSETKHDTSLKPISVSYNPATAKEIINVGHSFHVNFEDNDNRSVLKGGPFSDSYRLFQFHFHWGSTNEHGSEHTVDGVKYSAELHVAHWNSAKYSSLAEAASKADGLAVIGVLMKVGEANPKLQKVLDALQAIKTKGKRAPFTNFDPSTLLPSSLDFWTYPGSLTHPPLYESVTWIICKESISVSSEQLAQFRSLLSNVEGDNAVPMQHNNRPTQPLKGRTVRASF

Molecular target: Carbonic anhydrase 1 (Homo sapiens, UniProt P00915)
Assay: Inhibition of human carbonic anhydrase 1 incubated for 15 mins prior to testing by stopped-flow CO2 hydration assay

Structure (SMILES): O=c1ccc2ccc(O)cc2o1 [UMBELLIFERONE]
- Ki: > 10 µM
